We go through 5 compounds from US8748435B2, “Pyrazolo pyrimidine derivatives” (Novartis AG, priority 2011, dated 2014).

The chains behind the UniProt entries cited, without tags or fusion partners. Where a name states a change or a piece, a line headed by the entry shows the natural chain unless it says otherwise.
UniProt P46093: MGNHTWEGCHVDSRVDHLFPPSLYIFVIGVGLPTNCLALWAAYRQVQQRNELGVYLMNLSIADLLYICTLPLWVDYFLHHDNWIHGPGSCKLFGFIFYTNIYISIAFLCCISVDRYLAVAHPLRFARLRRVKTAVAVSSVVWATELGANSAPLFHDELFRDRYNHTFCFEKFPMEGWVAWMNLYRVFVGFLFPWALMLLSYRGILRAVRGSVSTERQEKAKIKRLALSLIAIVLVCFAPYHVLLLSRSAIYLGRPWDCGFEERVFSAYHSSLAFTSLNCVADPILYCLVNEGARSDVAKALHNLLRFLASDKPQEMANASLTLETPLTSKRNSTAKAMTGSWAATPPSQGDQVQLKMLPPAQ

Where a name gives a salt, the structure may show the parent alone.

A word on the IC50: it is the point on the concentration scale where inhibition reaches its midpoint.

Assay [1] concerns the target T1, human GPR4 (Homo sapiens (Human), UniProt P46093). Kind of assay: Human GPR4 binding assay with additional human serum albumin (4% HSA). The settings on record: binding assay with 4% HSA. How it is done:
Cells were grown in T175 flasks to a density of about 1×10^6 cells/mL in growth medium. The cells were harvested by centrifugation (3000 rpm for 30 minutes at 4° C.) and the pellet resuspended in ice cold buffer A (20 mM HEPES pH 7.8, 10 mM EDTA, 100 mM NaCl, 1 tab/40 mL protease inhibitor complete). […] The homogenate was centrifuged at 18000 rpm for 50 min at 4° C. and the membrane protein pellet resuspended in cold buffer A using the Polytron (2×20 seconds). The protein concentration is determined using the Bio Rad Protein Assay and human IgG as standard. The volume of the membrane protein suspension is adjusted to a final concentration of about 2 mg protein/mL. The suspension is then once again homogenized (Polytron) on ice at 25000 rpm for 20 seconds before being aliquoted and stored at −80° C.
Radio Ligand Binding Assay: Serial dilutions of compounds (stock in 10 mM DMSO) are prepared by first diluting the compounds in DMSO followed by a 1:50 dilution into assay buffer (10 mM HEPES, pH 8.0, 100 mM NaCl, 5 mM MgCl2, 1 mM CaCl2, 0.5% fatty acid-free BSA, 0.05% Tween-20). […] The desired amount of membranes (20 μg/well) is diluted with assay buffer. […] 100 μL of the membrane-suspension is added and the plate stirred for 60 minutes. […] The filter plate is washed 5 times with ice-cold wash buffer, dried and sealed at the bottom. Then 20 μL of Microscint 40 is added into each well and the top of the plate is sealed. Finally the plate is counted for 2 min/well in a TopCount NXT instrument (Packard Instruments). The data are analyzed using the GraphPad Prism™ software.
In a similar manner, a binding assay with additional human serum albumin (4% HSA) has been established.

Assay [2] can be described thus: Negative control binding: membranes from parental (non-transfected) 300.19 cells. The arrangement: species or system murine. Particulars: 5 nM radioligand, non-transfected 300.19 membranes. The source says:
As negative control, membranes isolated from parental (non-transfected) murine pre-B cell line 300.19 were used.

The target in assay [3] is T1, human GPR4. In words: Cell-based assay for human GPR4 activity (pH-induced cAMP formation, HTRF, HeLa cells). Particulars: HeLa cells stably expressing human GPR4, pH-induced cAMP. On the procedure:
b) Cell-Based Assay for Human GPR4 Activity
HeLa cells stably expressing human GPR4 were established by transfecting the cells with a construct containing the human GPR4 coding sequence. The cells were grown in Dulbecco's Modified Eagle Medium (DMEM)/HAM's tissue culture medium F12 (HAM's F12) supplemented with 10% fetal calf serum (FCS), 100 u/ml penicillin, 100 μg/ml streptomycin and 400 μg/ml G418 and 10 mM Hepes pH 8.0. pH-induced formation of cAMP was determined using the homogeneous time resolved fluorescence (HTRF) technology as provided by CisBio Inc. The cells were seeded in 384-well plates and cultured for 24 hours at 37° C., 5% CO2 before performing the assay. Medium was removed and 10 μl buffer A (Hepes buffered saline (HBS), 10 mM Hepes, pH 8, 2 mM 3-Isobutyl-1-methylxanthin (IBMX)) was added. For compound testing, buffer A with 2× concentrated compounds was used. Cells were incubated for 15 min at room temperature. 10 μl buffer B (HBS, 30 mM Hepes, specific pH) was added to reach the appropriate final pH for stimulation (see below) and incubation was continued for 15 min at room temperature. […] HBS: 130 mM NaCl, 0.9 mM NaH2 PO4, 5.4 mM KCl, 0.8 mM MgSO4, CaCl2 1.8 mM, 25 mM glucose, 10-30 mM Hepes. Adjustment of HBS buffers:
Compounds were diluted from fresh stock solutions at 10 mM in DMSO to 2 mM and then used for serial dilutions in DMSO.

Regarding `CCc1nn2c(C)cc(C)nc2c1Cc1ccc(/C=C/CC2(O)CCN(C[C@@H](O)CO)CC2)cc1` [Example 6, (R)-3-(4-{(E)-3-[4-(2-Ethyl-5,7-dimethyl-pyrazolo[1,5-a]pyrimidin-3-ylmethyl)-phenyl]-allyl}-4-hydroxy-piperidin-1-yl)-propane-1,2-diol], the IC50 at human GPR4 [1] was 18 nM.

On human GPR4 [1], `CCc1nn2c(C)cc(C)nc2c1Cc1ccc(OCC2CCNCC2)cc1` [Example 21, 2-Ethyl-5,7-dimethyl-3-[4-(piperidin-4-ylmethoxy)-benzyl]-pyrazolo[1,5-a]pyrimidine hydrochloride] gave an IC50 of 13 nM. On the same count and under the same terms, for `CCc1nn2c(C)cc(C)nc2c1Cc1ccc(-n2cc(CN3CCC(N)CC3)cn2)cc1` [Example 30, 1-{1-[4-(2-Ethyl-5,7-dimethyl-pyrazolo[1,5-a]pyrimidin-3-ylmethyl)-phenyl]-1H-pyrazol-4-ylmethyl}-piperidin-4-ylamine] the value was 18 nM. Consider `CCc1nn2c(C)cc(C)nc2c1Cc1ccc(CCCN2CCN(C(C)C)CC2)cc1` [Example 39, [^3H]4-2-Ethyl-3-{4-[3-(4-isopropyl-piperazin-1-yl)-propyl]-benzyl}-5,7-dimethyl-pyrazolo[1,5-a]pyrimidine], for which, in assay [2], the “binding signal on parental membranes” value is on record as “background signal was observed only”. `CCc1nn2c(C)cc(C)nc2c1Cc1ccc(OCC2CCN(C(=O)[C@H]3NCC[C@H]3O)CC2)cc1` [Example 22, {4-[4-(2-Ethyl-5,7-dimethyl-pyrazolo[1,5-a]pyrimidin-3-ylmethyl)-phenoxymethyl]-piperidin-1-yl}-((2S,3R)-3-hydroxy-pyrrolidin-2-yl)-methanone]: the IC50 against human GPR4 [3] came to 13 nM.
